Target: Human IDO1 (Homo sapiens (Human), UniProt P14902)
Test: IDO Kynurenine Assay with Human IDO1/HEK293 Cells
Assay type: cell-based
Details: 20 hours incubation, kynurenine detected with Ehrlich reagent, absorbance at 490 nm, read-out: HEK Human IDO-1 IC50
Protocol: IDO Kynurenine Assay with Human IDO1/HEK293 Cells
Human IDO1/HEK293 cells were seeded at 10,000 cells per 50 uL per well with RPMI/phenol red free media contains 10% FBS in a 384-well black wall clear bottom tissue culture plate (Matrix Technologies LLC) 125 nL of certain concentration of compound was then added to each well using ECHO liquid handling systems. The cells were incubated for 20 hours in 37° C. incubator with 5% CO2.
The compound treatments were stopped by adding Trichloroacetic Acid (Sigma-Aldrich) to a final concentration at 0.2%. The cell plate was further incubated at 50° C. for 30 minute. The equal volume supernatant (20 uL) and 0.2% (w/v) Ehrlich reagent (4-dimethylaminobenzaldehyde, Sigma-Aldrich) in glacial acetic acid were mixed in a new clear bottom 384-well plate. This plate was then incubated at room temperature for 30 minute. The absorbance at 490 nm was measured on Envision plate reader.
Compound IC50 values were calculated using the counts of 500 nM of a reference standard treatment as one hundred percent inhibition, and counts of no compound but DMSO treatment as zero percent inhibition.

By UniProt entry, the sequences of proteins in these tests, tags left out.
UniProt P14902, whole entry: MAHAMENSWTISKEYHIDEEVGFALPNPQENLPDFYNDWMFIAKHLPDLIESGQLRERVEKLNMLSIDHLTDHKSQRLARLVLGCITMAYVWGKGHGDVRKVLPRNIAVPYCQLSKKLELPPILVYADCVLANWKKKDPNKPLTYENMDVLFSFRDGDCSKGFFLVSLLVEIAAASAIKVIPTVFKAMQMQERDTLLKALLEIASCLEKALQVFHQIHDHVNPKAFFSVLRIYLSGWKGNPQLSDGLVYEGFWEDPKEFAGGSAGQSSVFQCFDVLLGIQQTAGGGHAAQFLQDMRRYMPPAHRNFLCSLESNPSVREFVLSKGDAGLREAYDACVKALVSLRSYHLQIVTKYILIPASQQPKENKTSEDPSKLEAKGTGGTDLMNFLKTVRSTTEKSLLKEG

**Q.** For `CC(C)CN(CC(C)C)c1ccc(C(C)CC(=O)O)cc1NC(=O)Nc1cc(C(F)(F)F)no1` (racemic) [Example 46, 3-(4-(diisobutylamino)-3-(3-(3-(trifluoromethyl)isoxazol-5-yl)ureido)phenyl)butanoic acid], which IC50 is on record?
**A.** 7 nM
